Data: ChEMBL document CHEMBL1136490, “Synthesis of non-immunosuppressive cyclophilin-Binding cyclosporin A derivatives as potential anti-HIV-1 drugs” (Bioorg Med Chem Lett, 2003)

Amino acid sequences for entries named in this document (tags omitted).
UniProt P62937, whole entry: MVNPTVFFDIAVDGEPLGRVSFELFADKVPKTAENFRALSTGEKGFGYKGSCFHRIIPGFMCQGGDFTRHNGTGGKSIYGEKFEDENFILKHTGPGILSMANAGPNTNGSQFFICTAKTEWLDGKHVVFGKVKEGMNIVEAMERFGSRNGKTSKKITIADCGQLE

Molecular target: Peptidyl-prolyl cis-trans isomerase A (Homo sapiens, UniProt P62937)
Test: Immunosuppressive activity was measured by inhibition of the IL-2 production in Jurkat cells.
Assay type: functional, cell-based

IC50: 1550 nM
SMILES: C/C=C/C[C@@H](C)[C@@H](O)[C@H]1C(=O)N[C@@H](CC)C(=O)N(C)[C@H](SCCN(C)C)C(=O)N(C)[C@@H](CC(C)(C)O)C(=O)N[C@@H](C(C)C)C(=O)N(C)[C@@H](CC(C)C)C(=O)N[C@@H](C)C(=O)N[C@H](C)C(=O)N(C)[C@@H](CC(C)C)C(=O)N(C)[C@@H](CC(C)C)C(=O)N(C)[C@@H](C(C)C)C(=O)N1C [SCY 635]
